The list shows a part of the results, in another mix than the full data. Activity calls are given as the source filed them.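 How the source made its calls: active means inhibition above the campaign mean plus 3 SD over all tested compounds (cut at about 24% in these data); inactive means the rest.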
test: reduced viability of JAK2V617F-dependent Ba/F3 cells, primary screen, JAK2V617F inhibitor project, cell-based, Ba/F3 EpoR-JAK2V617F, luminescence (AID 1446); conditions: ATP luminescence, at 5.6 µM, stronger effect = higher value;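 further: cytokine-independent growth of Ba/F3 cells driven by EpoR plus mutant JAK2; 0% = DMSO-treated cells and 100% = JAK inhibitor I control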

Structure (SMILES)	inhibition
COP1(=S)c2c(C)nn(CCC#N)c2N=C(c2ccc(F)cc2)N1C (stereo not drawn)	inactive: -2.58%
O=C(COc1ccccc1)OC1CN2CCC1CC2 (stereo not drawn)	inactive: -2.06%
CCOC(=O)c1ccc(NC(=O)C(C)(CCl)SC)cc1 (stereo not drawn)	inactive: -2.54%
CCC(C)N(CC(C)C)C(=S)SC(NC(C)=O)C(Cl)(Cl)Cl (stereo not drawn)	inactive: 3.53%
CCOC(=O)Nc1ccc([As](=O)(O)O)c(O)c1	inactive: -1.87%
Cc1cc(SC(NC(=O)c2ccccc2)C(Cl)(Cl)Cl)nc(C(C)C)n1 (stereo not drawn)	inactive: -0.09%
CCOC(=O)Nc1cccc([As](=O)(O)O)c1	inactive: 0.3%
Cc1cc(SC(NC=O)C(Cl)(Cl)Cl)ncn1 (stereo not drawn)	inactive: 3.26%
O=P(Nc1ccccn1)(c1cccc2ccccc12)c1cccc2ccccc12	inactive: 2.47%
O=[N+]([O-])c1ccc(Nc2ccc(Oc3ccc([N+](=O)[O-])cc3[N+](=O)[O-])cc2)c([N+](=O)[O-])c1	inactive: -3.05%
C[As](=O)(O)c1cccc(C(=O)O)c1	inactive: -4.43%
O=[As](O)(c1ccc(O)cc1)c1ccccc1O	inactive: 0.7%
Cc1ccc(OP(=O)(Nc2ccc([N+](=O)[O-])cn2)Oc2ccc(C)cc2)cc1	inactive: -6.23%
Cc1ccc2nc3c(c(C)c2c1)CC(C(Cl)Cl)S3 (stereo not drawn)	inactive: -3.29%
ClCCSc1nnc(-c2cccnc2)o1	inactive: 1.14%
CC(C)c1ccc(OP(=O)(Nc2ccccn2)Oc2ccccc2F)cc1 (stereo not drawn)	inactive: -1.42%
CC(C)NC(=O)NP(=O)(Oc1ccccc1)Oc1ccccc1	inactive: 1.9%
CCN(CC)C(=S)SC(NC=O)C(Cl)(Cl)Cl (stereo not drawn)	inactive: 0.91%
O=[N+]([O-])c1cc([N+](=O)[O-])c(-c2ccn[nH]2)s1	inactive: 3.8%
Cc1c2c(nc3ccccc13)SC(C(Cl)Cl)C2 (stereo not drawn)	inactive: -3.36%
O=C(OC1CN2CCC1CC2)C12CC3CC(CC(C3)C1)C2 (stereo not drawn)	inactive: 6.92%
Cc1cc(=O)[nH]c(N[N+](=O)[O-])n1	inactive: -1.59%
COc1ccc2nc(NP(=O)(c3ccccc3)c3ccccc3)sc2c1	inactive: -1.22%
COc1cc(I)ccc1[As](=O)(O)O	inactive: 0.32%
COc1ccc(N/C(=N/P(=O)(N2CCOCC2)N2CCOCC2)N2CCOCC2)cc1	inactive: -0.8%
O=C(OC1CN2CCC1CC2)c1ccc(Cl)cc1 (stereo not drawn)	inactive: -2.52%

Structure (SMILES)	inhibition
O=[As](O)(O)c1cccnc1	inactive: -1.51%
COc1cc(C(=O)NCC2(N3CCOCC3)CCCCC2)cc(Cl)c1OC(C)C	inactive: -2.09%
Cc1cccc(OCC(=O)OC2CN3CCC2CC3)c1 (stereo not drawn)	inactive: -2.53%
O=[As](O)(c1cccc(O)c1)c1cccc(O)c1	inactive: -2.37%
Cc1ccc(NCCc2c([N+](=O)[O-])cc([N+](=O)[O-])cc2[N+](=O)[O-])cc1	inactive: 1.19%
Nc1cccc2c([As](=O)(O)O)cccc12	inactive: -4.31%
CCCOP(=S)(Nc1nc(N)cc(=O)[nH]1)OCCC	inactive: 0.03%
COc1cc(C2NCCC3(OCCO3)C2(C)C)cc(OC)c1OC (stereo not drawn)	inactive: 3.85%
CCOP(=O)(Nc1cccc2ccccc12)OCC	inactive: 1.57%
CCOP1(=S)c2c(C)nn(CCC#N)c2N=C(c2ccccc2F)N1C (stereo not drawn)	inactive: -2.94%
O=P(Nc1nccs1)(Oc1ccccc1)Oc1ccccc1	inactive: 1.14%
O=P(Nc1nccs1)(c1ccccc1)c1nc2ccccc2s1 (stereo not drawn)	inactive: -1.44%
CS(=O)(=O)c1cc([N+](=O)[O-])c2no[n+]([O-])c2c1	inactive: -6.5%
O=C(O)COc1ccc([As](=O)(O)O)cc1[N+](=O)[O-]	inactive: -1.79%
Nc1ccccc1[As](=O)(O)c1ccccc1	inactive: 0.93%
CCOP1(=S)c2c(C)nn(CCC#N)c2N=C(c2ccc(F)cc2)N1C (stereo not drawn)	inactive: -1.51%
O=[N+]([O-])c1ccc2c(c1)nnn2O	inactive: -3.11%
Cc1nn(-c2ccccc2)c2c1P(=O)(N1CCOCC1)N(C)C(c1ccccc1)=N2 (stereo not drawn)	inactive: 2.62%
CC1CCC(C(C)C)C(OP(=O)(Nc2ccccn2)c2ccccc2)C1 (stereo not drawn)	inactive: -0.46%
CN(C)C1(CNC(=O)c2ccc(S(C)(=O)=O)cc2)CCCCC1	inactive: -2.3%
O=C(/C=C/c1ccccc1)OC1CN2CCC1CC2 (stereo not drawn)	inactive: 5.65%
O=P1(Nc2ncccn2)COc2ccccc2OC1	inactive: -3.48%
Nc1cccc([As](=O)(O)c2ccccc2)c1	inactive: 0.98%
Cc1ccc(OCC(=O)OC2CN3CCC2CC3)cc1 (stereo not drawn)	inactive: -1.07%
O=[As](O)(c1cccs1)c1cccs1	inactive: -0.19%
O=P1(Nc2ccc(Br)cn2)COc2ccccc2OC1	inactive: -0.89%

Structure (SMILES)	inhibition
O=P1(Nc2ccccn2)COc2ccccc2OC1	inactive: -1.26%
CCOP(=O)(Nc1ccc(C)cn1)OCC	inactive: -1.06%
Clc1n[nH]nc1-c1nn[nH][15n]1	inactive: 1.82%
CC(C)(C)C(=O)NC(Sc1ncccn1)C(Cl)(Cl)Cl (stereo not drawn)	inactive: -1.51%
CN(C(=O)Cc1ccc(Cl)c(Cl)c1)[C@@H]1CCCC[C@H]1N1CCCC1	inactive: -5.76%
CC(C)/C=N\N=C(\N)N[N+](=O)[O-]	inactive: 0.92%
O=[As](O)(c1ccccc1Br)c1ccccc1Br	inactive: -3.28%
CC1(CBr)Cn2c(nc3ccccc3c2=O)S1 (stereo not drawn)	inactive: -3.24%
O=P(Nc1nccs1)(c1ccccc1)c1ccccc1	inactive: 7.24%
CC(C)C(=O)NC(Sc1ccccc1)C(Cl)(Cl)Cl (stereo not drawn)	inactive: -3.29%
c1nnnn1CCn1cnnn1	inactive: -2.64%
O=P(Nc1ccccn1)(c1ccc(Br)cc1)c1ccc(Br)cc1	inactive: 3.09%
O=P(Nc1nc2ccccc2s1)(c1ccccc1)c1ccccc1	inactive: -3.61%
O=[As](O)(c1ccccc1)c1ccc(O)cc1	inactive: 2.12%
CC(=O)NC(SC(=S)N(C)C)C(Cl)(Cl)Cl (stereo not drawn)	inactive: -0.37%
O=[N+]([O-])c1ncn(CCn2cnc([N+](=O)[O-])n2)n1	inactive: -1.17%
O=C(OC1CN2CCC1CC2)c1cccc(Cl)c1 (stereo not drawn)	inactive: -0.97%
C(Cc1nn[nH]n1)Cc1nn[nH]n1	inactive: 0.37%
Nc1ccc([As](=O)(O)c2ccc([N+](=O)[O-])cc2)cc1	inactive: -3.3%
c1ccc(-c2nn[nH]n2)c(-c2nn[nH]n2)c1	inactive: -1.49%
Cc1ccc(NP(=O)(Oc2cccc(C)c2)Oc2cccc(C)c2)nc1	inactive: -4.39%
CCOC(=O)NC(Sc1ccccc1)C(Cl)(Cl)Cl (stereo not drawn)	inactive: -0.51%
O=C(NC1CCS(=O)(=O)C1)NP(=S)(Oc1ccccc1)Oc1ccccc1 (stereo not drawn)	inactive: 0.21%
CCNC(=S)/N=C(\N)N[N+](=O)[O-]	inactive: 0.89%
CCC(=O)N1C2C3N(C(=O)CC)C1C1N(C(=O)CC)C(C(N1C(=O)CC)N3C(=O)CC)N2C(=O)CC	inactive: -0.74%
COC(=O)c1cc2c(s1)N=C(c1ccccc1)N(C)P2(=O)N1CCOCC1 (stereo not drawn)	inactive: -0.64%

Structure (SMILES)	inhibition
CC(=O)NC(SC(=S)N(CC(C)C)CC(C)C)C(Cl)(Cl)Cl (stereo not drawn)	active: 47.4%
Cc1ccc(OP(=O)(Nc2ccccn2)Oc2ccc(C)cc2)cc1	inactive: -5.69%
Cc1ccccc1OP(=O)(Nc1ccccn1)Oc1ccccc1C	inactive: -3.4%
O=c1c2cc([N+](=O)[O-])ccc2[nH]c2c([N+](=O)[O-])cc([N+](=O)[O-])cc12	inactive: -2.14%
CN(C)C(=O)Oc1noc2ccccc12	inactive: -3.89%
O=P1(Nc2nc3ccc(Cl)cc3s2)COc2ccccc2O1 (stereo not drawn)	inactive: 1.19%
CCOc1ccc(C2=NCC(CBr)S2)cc1 (stereo not drawn)	inactive: 2.56%
CC(C)(C)C(=O)NC(Sc1ccccc1)C(Cl)(Cl)Cl (stereo not drawn)	inactive: -3.19%
CC(=O)Nc1ccc([As](=O)(O)O)c(O)c1	inactive: -1.26%
CC(=O)Nc1ccc(Oc2c([N+](=O)[O-])cc([N+](=O)[O-])cc2[N+](=O)[O-])cc1	inactive: 2.17%
Cc1ccc(N/C(=N/P(=O)(N2CCOCC2)N2CCOCC2)N2CCOCC2)cc1	inactive: 2.62%
NC(=O)c1cc([N+](=O)[O-])cc([N+](=O)[O-])c1N	inactive: -0.1%
CN1CCCC(OC(=O)C(c2ccccc2)c2ccccc2)C1 (stereo not drawn)	inactive: -0.12%
Clc1ccc(Cl)c(NC2=NCC(CBr)S2)c1 (stereo not drawn)	inactive: -0.31%
COc1ccccc1OP(=O)(Nc1ccc(C)cn1)Oc1ccccc1OC	inactive: -4.64%
Cc1ccc(OP(=O)(Nc2nccs2)Oc2ccc(C)cc2)cc1	inactive: -0.95%
Oc1ccccc1CNc1ccccn1	inactive: -0.14%
O=C(NC(Sc1ccncn1)C(Cl)(Cl)Cl)c1ccccc1 (stereo not drawn)	inactive: -2.09%
Cc1c2non([O-])c-2c(C)[n+](=O)[n+]1[O-]	inactive: 3.5%
Nc1cc(N)c2nonc2c1[N+](=O)[O-]	inactive: -1.03%
CC(C)CC(=O)NC(Sc1ccc(Cl)cc1)C(Cl)(Cl)Cl (stereo not drawn)	inactive: -1.27%
O=P(Nc1nc2ccc(Cl)cc2s1)(c1ccccc1)c1ccccc1	inactive: -1.06%
CC(=O)Nc1ccc([As](=O)(O)O)cc1	inactive: -1.94%
O=C(O)c1ccccc1[As](=O)(O)O	inactive: -4.33%
Cc1cc(SC(NC(=O)c2ccc(F)cc2)C(Cl)(Cl)Cl)ncn1 (stereo not drawn)	inactive: -2.04%

Reference: PubChem BioAssay AID1446 (The Scripps Research Institute Molecular Screening Center, 2008)
